# According to patent US20070141203A1, “Beverages containing water-soluble vitamin E” (priority 2003, published 2007):
# Where two headings read alike, the source gives them in different places.
# What was measured:
# [1] = individuals or animals having difficulties absorbing naturally occurring, fat-soluble vitamin E; cited from earlier work
# [2] = cited from earlier work
# [3] = Visual appearance / dissolution of vitamin E-containing components in demineralized water, on preparation and during storage; format: physicochemical; conditions: for Appearance during / after storage: six weeks at ambient temperature
# Experimental: (§1) Sample 1: Vitamin E oil (0.15 g) was added to 1000 g of demineralized water. The mixture was homogenized for approximately 60 minutes using a Gifford-Wood homogenizer, Model 1 L form Greerco Corporation. The sample was very cloudy. The turbidity of the sample was measured using a Hach turbidimeter Model Ratio/XR. The turbidity of the demineralized water was also measured prior to addition of the vitamin E. The sample was stored at ambient temperature for six weeks. […] The sample was shaken well and the turbidity measured.
# (§2) Sample 2: Vitamin E acetate oil (0.25 g) from Sigma-Aldrich was added to 1681 g of demineralized water. […] The turbidity of the dispersion was measured and then again after storage for six weeks at ambient temperature.
# (§3) Sample 3: Vitamin E succinate powder (0.27 g) from Sigma-Aldrich was added to 1792 g of demineralized water. The mixture was homogenized for approximately 60 minutes. […] The turbidity of the dispersion was measured and then again after storage for six weeks at ambient temperature.
# (§4) Sample 4: To 1988 g of demineralized water was added 1.49 g of a 20% solution by weight of Eastman Vitamin E TPGS™ in water prepared according to the method described in Example 1. This solution was stirred at ambient temperature using a magnetic stirrer for several minutes. […] The turbidity of the solution was measured and then measured again after storage at ambient temperature for six weeks.
# as §4, with “5:” for “4:”, “1777” for “1988”, “16.0” for “1.49”
# (§5) Sample 6: To 1790 g of demineralized water was added 0.27 g of a mixture consisting of d,l-α-tocopheryl acetate, modified food starch, and silica. This product is commercially available from Roche Vitamins, Inc., under the name “Dry Vitamin E 15% CC”. The aqueous mixture was agitated for about thirty minutes using a magnetic stirrer. […] The turbidity of the solution was measured and then re-measured after storage for six weeks at ambient temperature.
# (§6) Sample 7: To 1802 g of demineralized water was added 0.27 g of a mixture consisting of d-α-tocopheryl acetate, Polysorbate 60, and ethyl alcohol. This product is commercially available from ADM under the name “E 230 Clear®”. The mixture was agitated for about ten minutes using a magnetic stirrer. […] The turbidity of the solution was measured and then re-measured after storage for six weeks at ambient temperature.
# [4] = for Turbidity (Initially doped beverage): immediately after addition
# [5] = normal conditions; cited from earlier work
# [6] = Turbidity of aqueous dispersions and solutions of vitamin E-containing components in demineralized water (Hach turbidimeter Model Ratio/XR); format: physicochemical; conditions: for Turbidity (Initially doped water): initial; for Turbidity (6 wks after doping): six weeks at ambient temperature
# Experimental: Preparation of aqueous dispersions and solutions of vitamin E-containing components.
# as §1, §2, §3, §4
# as §4, with “5:” for “4:”, “1777” for “1988”, “16.0” for “1.49”
# as §5, §6
# [7] = Demineralized water, 151 ppm TPGS
# [8] = Evian Natural Spring Water, 1800 ppm TPGS
# [9] = Fanta Strawberry, 1500 ppm TPGS
# [10] = Hansen's Energy Water - Lemon, 1500 ppm TPGS
# [11] = Motts Apple Juice, 1400 ppm TPGS
# [12] = Mountain Lightening, 1400 ppm TPGS
# [13] = Ocean Spray White Cranberry, 1500 ppm TPGS
# [14] = Sam's Choice - Raspberry, 1500 ppm TPGS
# [15] = Twister - Kiwi/Strawberry, 1500 ppm TPGS
# [16] = 150 +/- 5 ppm in demineralized water
# [17] = 1800 +/- 5 ppm in demineralized water
substance,measurement,setting,value
d-α-Tocopherol polyethylene glycol 1000 succinate [Vitamin E TPGS™],bioavailability as source of vitamin E,[1],readily bioavailable source of vitamin E
same,solubility in water,[2],at least 200 g/L
same,Appearance / dissolution on preparation,"[3]; about 150 ppm in demineralized water, after homogenizing or stirring",dissolved almost immediately
same,Appearance during / after storage,[3]; about 150 ppm in demineralized water,No solids or immiscible liquids appeared during storage
same,Appearance / dissolution on preparation,"[3]; about 1800 ppm in demineralized water, after stirring",dissolved almost immediately
same,Appearance during / after storage,[3]; about 1800 ppm in demineralized water,No solids or immiscible liquids appeared during storage
same,Turbidity (Initially doped beverage),[4]; [7],0.05 NTU
same,Turbidity (six weeks after doping),[4]; [7],0.05 NTU
same,Turbidity (Initially doped beverage),"[4]; Diet Snapple, 1500 ppm TPGS",2.7 NTU
same,Turbidity (six weeks after doping),"[4]; Diet Snapple, 1500 ppm TPGS",3.1 NTU
same,Turbidity (Initially doped beverage),[4]; [8],0.45 NTU
same,Turbidity (six weeks after doping),[4]; [8],0.55 NTU
same,Turbidity (Initially doped beverage),[4]; [9],0.4 NTU
same,Turbidity (six weeks after doping),[4]; [9],0.5 NTU
same,Turbidity (Initially doped beverage),[4]; [10],0.72 NTU
same,Turbidity (six weeks after doping),[4]; [10],0.91 NTU
same,Turbidity (Initially doped beverage),[4]; [11],1.4 NTU
same,Turbidity (six weeks after doping),[4]; [11],2.2 NTU
same,Turbidity (Initially doped beverage),[4]; [12],3.6 NTU
same,Turbidity (six weeks after doping),[4]; [12],4.1 NTU
same,Turbidity (Initially doped beverage),[4]; [13],4.9 NTU
same,Turbidity (six weeks after doping),[4]; [13],5.8 NTU
same,Turbidity (Initially doped beverage),[4]; [14],0.39 NTU
same,Turbidity (six weeks after doping),[4]; [14],0.46 NTU
same,Turbidity (Initially doped beverage),[4]; [15],2.72 NTU
same,Turbidity (six weeks after doping),[4]; [15],2.99 NTU
same,stability / hydrolysis,[5],very stable and does not hydrolyze under normal conditions
same,Turbidity (Initially doped water),[6]; [16],0.05 NTU
same,Turbidity (6 wks after doping),[6]; [16],0.05 NTU
same,Turbidity (Initially doped water),[6]; [17],0.1 NTU
same,Turbidity (6 wks after doping),[6]; [17],0.42 NTU
